PubChem BioAssay AID435003 (Sanford-Burnham Center for Chemical Genomics, 2010)
Only a part is listed here, and it is no random draw. Calls of active or inactive are those of the source. Rule as the data show it: active = inhibition above about 50%; inactive = the rest.

Test: lowers stimulated NF-kB reporter luminescence – cell-based, uHTS, TCR NF-kB activation inhibitor project, primary screen (AID 435003)
Conditions: Jurkat, PMA/ionomycin-induced NF-kB luciferase reporter, at 4 µM, active compounds read high
In the case of `CCC(=O)N(c1ccccc1)C1(COC)CCN(CCn2nnn(CC)c2=O)CC1`, the inhibition was inactive: -0.0994%. For `CCC(=O)N(c1ccccc1)C1(COC)CCN(CCc2cccs2)CC1`, the inhibition was inactive: -23.6%.
